# Test results as given in patent US20110251085A1, “IN VITRO METHOD TO DETERMINE WHETHER A DRUG CANDIDATE ACTIVE AGAINST A TARGET PROTEIN IS ACTIVE AGAINST A VARIANT OF SAID PROTEIN” (VIVALIS, priority 2008, published 2011).
# System: NS5BΔ21 P495L mutant
# Experiment: 3D-Screen-NS5B mutant profiling, Hela cells, P495L
# Format: cell-based, HCV genotype 1b
# Conditions: n=2
# Procedure: Percentages of reporter's inhibition were represented for cells incubated with a specific NS5B inhibitors at increasing concentrations for 24 hours.
# Transfections were performed for 2 hours in 100 mm dishes in 2 to 4 million cells with 5 to 20 ug of total DNA complexed to jetPEI (PolyPLus transfection, Illkirch, France) with a N/P ratio of 8 The optimal ratio between the plasmids encoding for the luciferase reporter, the target and the selected 3Dsensor was: 3 ug/1 ug/0.5 ug. Cells were dissociated and 25000 cells per well were seeded in 96 well culture treated plates (BD Biosciences, Erembodegem, Belgium).
# Cell culture supernatant was discarded and 100 ul of Lysis buffer were added to each well. Following […] of vigorous shaking, the lysate was transferred to white opaque 96 well-plates and 100 ul of Luciferin buffer were added. Chemi-luminescence measurement was performed immediately using a Microlumat LB96 luminometer (Berthold, Thoiry, France) with 1 or 10 sec integration time.
# After incubation for 24 hours with increasing concentrations of cVVS023477 (a compound belonging to the Benzothiadiazin family) or cVVS-023476 (a compound belonging to the Indol N Acetamid family), luciferase expression was measured.
compound,measurement,value
"CCN(CC)C1CCN(C(=O)Cn2c(-c3ccc(Cl)cc3)c(C3CCCCC3)c3ccc(C(=O)O)cc32)CC1 [cVVS-023476, 1-{[6-Carboxy-2-(4-chlorophenyl)-3-cyclohexyl-1H-indol-1-yl-]acetyl}-N,N-diethylpiperidin-4-aminium Chloride]",increase of IC50 versus native NS5B,at least 10 fold
